This is an account of results in patent US7285560B2, “Indole derivatives or benzimidazole derivatives for modulating IκB kinase” (Sanofi-Aventis Deutschland GmbH, priority 2002, dated 2007).

Amino acid sequences for entries named in this document (tags omitted). A change or cut given only in a name is not applied to a line headed by its entry.
UniProt O14920: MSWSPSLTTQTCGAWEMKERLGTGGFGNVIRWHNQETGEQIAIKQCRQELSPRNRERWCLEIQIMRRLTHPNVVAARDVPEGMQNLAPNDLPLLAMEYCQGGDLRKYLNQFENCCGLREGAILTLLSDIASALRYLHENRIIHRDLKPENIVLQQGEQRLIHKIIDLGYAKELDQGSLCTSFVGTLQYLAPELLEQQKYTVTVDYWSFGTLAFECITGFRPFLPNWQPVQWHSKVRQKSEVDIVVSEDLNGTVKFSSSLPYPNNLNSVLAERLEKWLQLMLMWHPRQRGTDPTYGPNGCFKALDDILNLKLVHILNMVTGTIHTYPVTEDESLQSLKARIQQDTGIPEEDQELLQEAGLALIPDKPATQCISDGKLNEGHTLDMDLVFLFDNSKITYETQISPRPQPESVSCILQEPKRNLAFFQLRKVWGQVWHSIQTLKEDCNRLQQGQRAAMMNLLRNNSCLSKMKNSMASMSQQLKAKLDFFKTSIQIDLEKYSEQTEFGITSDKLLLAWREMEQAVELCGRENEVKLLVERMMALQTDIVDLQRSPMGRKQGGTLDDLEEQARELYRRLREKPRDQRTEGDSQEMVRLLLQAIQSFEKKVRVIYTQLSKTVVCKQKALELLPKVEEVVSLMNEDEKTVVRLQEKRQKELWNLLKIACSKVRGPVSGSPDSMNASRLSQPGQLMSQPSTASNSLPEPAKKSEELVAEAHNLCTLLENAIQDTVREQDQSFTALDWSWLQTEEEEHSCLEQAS
UniProt O15111: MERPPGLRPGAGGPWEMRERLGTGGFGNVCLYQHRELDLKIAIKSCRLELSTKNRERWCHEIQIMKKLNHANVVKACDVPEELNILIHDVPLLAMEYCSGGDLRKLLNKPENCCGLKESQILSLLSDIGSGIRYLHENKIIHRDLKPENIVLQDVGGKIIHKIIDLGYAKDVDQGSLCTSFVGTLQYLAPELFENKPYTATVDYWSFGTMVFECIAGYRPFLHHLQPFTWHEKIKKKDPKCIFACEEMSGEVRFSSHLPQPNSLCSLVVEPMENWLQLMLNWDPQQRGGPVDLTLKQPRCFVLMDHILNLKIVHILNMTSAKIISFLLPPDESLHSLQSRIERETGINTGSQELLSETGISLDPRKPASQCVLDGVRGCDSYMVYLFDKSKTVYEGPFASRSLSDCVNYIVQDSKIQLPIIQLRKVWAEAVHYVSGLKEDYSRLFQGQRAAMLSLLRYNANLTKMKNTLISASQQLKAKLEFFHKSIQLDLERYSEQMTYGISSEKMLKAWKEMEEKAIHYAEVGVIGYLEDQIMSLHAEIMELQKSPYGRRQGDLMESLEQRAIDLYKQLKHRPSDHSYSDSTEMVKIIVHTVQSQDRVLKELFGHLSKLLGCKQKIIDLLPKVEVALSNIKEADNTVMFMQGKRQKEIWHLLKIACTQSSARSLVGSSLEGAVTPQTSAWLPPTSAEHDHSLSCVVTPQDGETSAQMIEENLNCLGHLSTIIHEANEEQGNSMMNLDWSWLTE

The test system of experiment [1] is protein tyrosine kinase. The experiment can be described thus: Protein tyrosine kinase assay (Upstate test kit). Type of experiment: biochemical. Here is the method:
As examples of the specificities of the IκB kinase inhibitors which had been discovered, their IC50 values were determined in the case of the kinase enzyme protein tyrosine kinase.
Protein tyrosine kinase activity was determined using the appropriate test kit from Upstate Biotechnologie in accordance with the manufacturer's instructions and at an ATP concentration of 50 μM. As a difference from the manufacturer's method, Multi-Screen plates (Millipore; phosphocellulose MS-PH, cat. MAPHNOB10, or Durapore PVDF, cat. MADVNOB 50), were used, together with the appropriate exhaust system, instead of phospho-cellulose filters. Poly (Glu, Tyr 4:1) (Sigma cat. P0275) was used as the test kit substrate at a test concentration of 1 mg/ml. The plates were then measured in a Wallac MicroBeta scintillation counter. 100 μM of the test substance were used in each case.
The test substance was tested in a duplicate determination. The IC50 calculations were performed using the GraFit 3.0 software package.

For experiment [2], the target named is T1, IκB kinase (Homo sapiens, UniProt O14920+O15111).
T1 construct: endogenous in cells; host or cells: HeLa S3 (S100 extract; ammonium sulfate cut, Superose-6 fractions at 670 kDa)
The experiment can be described thus: IκB kinase ELISA. The class given is biochemical.

Molecules are shown by their SMILES.

In general, IC50 refers to the concentration that gives 50% inhibition. On to `CNc1nccc(-c2cc3cc(C(=O)N[C@@H](CN(c4ccccc4)c4ccccc4)c4n[nH]c(=O)o4)ccc3[nH]2)n1` [Example 28, N-[(S)-2-Diphenylamino-1-(5-oxo-4,5-dihydro[1,3,4]oxadiazol-2-yl)ethyl]-2-(2-methylaminopyrimidin-4-yl)-1H-indole-5-carboxamide], for which the Specificity ratio in experiment [1] (IC50 protein tyrosine kinase relative to IκB kinase, > denotes better than) is listed as 1650. Besides, the “ratio of the IC50 values for protein tyrosine kinase relative to IκB kinase” value in experiment [1] (for the comparison compound the IκB kinase IC50 is taken from WO 01/30774) is on record as 1650. The compound also gave a 50% inhibitory concentration (IC50) in experiment [2] of 0.05 µM.
